Molecules are shown by their SMILES. The entries are a selection whose mix differs from that of the whole data set. Active and inactive are the calls of the source.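 Rule for the calls: active = mean percent inhibition of duplicate wells above the buffer-only control mean plus 3 SD of those controls; inactive = the rest.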

The test has as its target Potassium voltage-gated channel subfamily E member 1 (Homo sapiens) + Potassium voltage-gated channel subfamily KQT member 1 (Homo sapiens) (UniProt P15382+P51787). Nature of the test: KCNQ1/KCNE1 channel inhibition, selectivity assay for KCNQ1 inhibitor project, CHO-K1 cells, thallium flux, FluxOR (AID 652147).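 Note: 0% = buffer only wells and 100% = XE-991 inhibitor control.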 The settings on record: FluxOR thallium flux fluorescence, at 10 µM, hits give high values. The method in brief:
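Probe or stimulus: depolarizing thallium/potassium stimulus, 5x stock with 12.5 mM Tl2SO4 and K2SO4. System: KCNQ1/KCNE1 potassium channel-expressing cells, plated overnight. Timing: dye 90 min and compound 20 min at room temperature. Signal: kinetic FluxOR thallium-sensitive fluorescence, 1 Hz sampling, 150 s post-stimulus.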
`COc1cc(C(=O)NCC2(N3CCOCC3)CCCCC2)cc(Cl)c1OC(C)C`: the inhibition was active: 63.5%.

Turning to `CCC1=CC2Cc3nc4ccc(Cl)cc4c(N)c3C(C1)C2` (configuration not stated), the inhibition was active: 110%.

Broadly, the inhibition is the relative decrease from the control value, in per cent.

These data come from PubChem BioAssay AID652147 (Johns Hopkins Ion Channel Center, 2013).
